# Source: patent US10456407B2, “Combination therapy for treating cancer” (Epizyme, Inc., priority 2015, dated 2019)
# Tests used:
# SU-DHL4 cells = assay: RT2 Glucocorticoid signaling PCR array, SU-DHL4 (SUDHL4) cell line (Table 4f); format: cell-based; details: SUDHL4, 4 days, vs DMSO
# Excerpt: Expression levels of (A). Sestrin; (B). TNF and (C) GILZ normalized to DMSO controls for each cell line with the indicated single agent or combination.
# WSU-DLCL2 cells = assay: RT2 Glucocorticoid signaling PCR array, WSU-DLCL2 (WSU) cell line (Table 4c); format: cell-based
structure (smiles),measurement,setting,value
"C[C@]12C=CC(=O)C=C1CC[C@@H]1[C@@H]2[C@@H](O)C[C@@]2(C)[C@H]1CC[C@]2(O)C(=O)CO [Prednisolone, prednisolone]","Fold Change, ADARB1",SU-DHL4 cells,1.430
same,"Fold Change, AFF1",SU-DHL4 cells,1.346
same,"Fold Change, AK2",SU-DHL4 cells,2.108
same,"Fold Change, AMPD3",SU-DHL4 cells,1.854
same,"Fold Change, ANGPTL4",SU-DHL4 cells,2.066
same,"Fold Change, ANXA4",SU-DHL4 cells,1.853
same,"Fold Change, ARID68",SU-DHL4 cells,1.095
same,"Fold Change, ASPH",SU-DHL4 cells,1.367
same,"Fold Change, ATF4",SU-DHL4 cells,1.213
same,"Fold Change, BCL6",SU-DHL4 cells,1.733
same,"Fold Change, CEBPA",SU-DHL4 cells,1.232
same,"Fold Change, CEBPB",SU-DHL4 cells,0.694
same,"Fold Change, CREB1",SU-DHL4 cells,1.462
same,"Fold Change, CREB3",SU-DHL4 cells,1.474
same,"Fold Change, CREB3L4",SU-DHL4 cells,1.148
same,"Fold Change, CYB561",SU-DHL4 cells,1.647
same,"Fold Change, DDIT4",SU-DHL4 cells,3.813
same,"Fold Change, DUSP1",SU-DHL4 cells,2.133
same,"Fold Change, EHD3",SU-DHL4 cells,2.505
same,"Fold Change, FK8PS",SU-DHL4 cells,2.994
same,"Fold Change, GDPD1",SU-DHL4 cells,1.328
same,"Fold Change, GHRHR",SU-DHL4 cells,0.880
same,"Fold Change, H6PD",SU-DHL4 cells,0.895
same,"Fold Change, HNRPLL",SU-DHL4 cells,1.219
same,"Fold Change, IL6R",SU-DHL4 cells,1.438
same,"Fold Change, IL10",SU-DHL4 cells,1.094
same,"Fold Change, KLF9",SU-DHL4 cells,1.767
same,"Fold Change, KLF13",SU-DHL4 cells,1.911
same,"Fold Change, MT2A",SU-DHL4 cells,0.914
same,"Fold Change, NFKBIA",SU-DHL4 cells,1.636
same,"Fold Change, NR3C1",SU-DHL4 cells,1.344
same,"Fold Change, PDCD7",SU-DHL4 cells,0.756
same,"Fold Change, PDP1",SU-DHL4 cells,1.435
same,"Fold Change, PER1",SU-DHL4 cells,1.724
same,"Fold Change, PER2",SU-DHL4 cells,2.145
same,"Fold Change, PIK3R1",SU-DHL4 cells,1.856
same,"Fold Change, PLEKHF1",SU-DHL4 cells,2.437
same,"Fold Change, POU2F1",SU-DHL4 cells,1.349
same,"Fold Change, POU2F2",SU-DHL4 cells,1.597
same,"Fold Change, RASA3",SU-DHL4 cells,1.651
same,"Fold Change, RGS2",SU-DHL4 cells,1.294
same,"Fold Change, RHOB",SU-DHL4 cells,0.605
same,"Fold Change, SGK1",SU-DHL4 cells,1.271
same,"Fold Change, SLC10A6",SU-DHL4 cells,14.662
same,"Fold Change, SLC19A2",SU-DHL4 cells,1.993
same,"Fold Change, SLC22A5",SU-DHL4 cells,1.126
same,"Fold Change, SNTA1",SU-DHL4 cells,1.610
same,"Fold Change, SPHK1",SU-DHL4 cells,0.795
same,"Fold Change, SPSB1",SU-DHL4 cells,0.954
same,"Fold Change, STAT5A",SU-DHL4 cells,1.309
same,"Fold Change, STAT5B",SU-DHL4 cells,1.204
same,"Fold Change, TBL1XR1",SU-DHL4 cells,1.648
same,"Fold Change, TNF",SU-DHL4 cells,7.185
same,"Fold Change, TNFAIP3",SU-DHL4 cells,0.559
same,"Fold Change, TSC22D3",SU-DHL4 cells,4.497
same,"Fold Change, USP2",SU-DHL4 cells,3.207
same,"Fold Change, USPS4",SU-DHL4 cells,2.085
same,"Fold Change, VDR",SU-DHL4 cells,1.994
same,"Fold Change, VLDLR",SU-DHL4 cells,0.438
same,"Fold Change, ZFP36",SU-DHL4 cells,1.455
same,"Fold Change, ZHX3",SU-DHL4 cells,1.825
same,"Fold Change, ZNF281",SU-DHL4 cells,1.692
same,"Fold Change, ADARB1","WSU-DLCL2 cells; gene ADARB1, compared to DMSO",0.935
same,"Fold Change, AFF1","WSU-DLCL2 cells; gene AFF1, compared to DMSO",1.379
same,"Fold Change, AK2","WSU-DLCL2 cells; gene AK2, compared to DMSO",0.937
same,"Fold Change, AMPD3","WSU-DLCL2 cells; gene AMPD3, compared to DMSO",1.164
same,"Fold Change, ANGPTL4","WSU-DLCL2 cells; gene ANGPTL4, compared to DMSO",1.256
same,"Fold Change, ANXA4","WSU-DLCL2 cells; gene ANXA4, compared to DMSO",1.017
same,"Fold Change, ARID68","WSU-DLCL2 cells; gene ARID68, compared to DMSO",0.582
same,"Fold Change, ASPH","WSU-DLCL2 cells; gene ASPH, compared to DMSO",1.029
same,"Fold Change, ATF4","WSU-DLCL2 cells; gene ATF4, compared to DMSO",0.940
same,"Fold Change, BCL6","WSU-DLCL2 cells; gene BCL6, compared to DMSO",0.841
same,"Fold Change, CEBPA","WSU-DLCL2 cells; gene CEBPA, compared to DMSO",1.227
same,"Fold Change, CEBPB","WSU-DLCL2 cells; gene CEBPB, compared to DMSO",0.569
same,"Fold Change, CREB1","WSU-DLCL2 cells; gene CREB1, compared to DMSO",1.097
same,"Fold Change, CREB3","WSU-DLCL2 cells; gene CREB3, compared to DMSO",1.369
same,"Fold Change, CREB3L4","WSU-DLCL2 cells; gene CREB3L4, compared to DMSO",1.257
same,"Fold Change, CYB561","WSU-DLCL2 cells; gene CYB561, compared to DMSO",12.109
same,"Fold Change, DDIT4","WSU-DLCL2 cells; gene DDIT4, compared to DMSO",3.187
same,"Fold Change, DUSP1","WSU-DLCL2 cells; gene DUSP1, compared to DMSO",0.730
same,"Fold Change, EHD3","WSU-DLCL2 cells; gene EHD3, compared to DMSO",3.127
same,"Fold Change, FK8PS","WSU-DLCL2 cells; gene FK8PS, compared to DMSO",2.373
same,"Fold Change, FOSL2","WSU-DLCL2 cells; gene FOSL2, compared to DMSO",0.139
same,"Fold Change, GDPD1","WSU-DLCL2 cells; gene GDPD1, compared to DMSO",0.889
same,"Fold Change, GHRHR","WSU-DLCL2 cells; gene GHRHR, compared to DMSO",0.091
same,"Fold Change, GOT1","WSU-DLCL2 cells; gene GOT1, compared to DMSO",0.834
same,"Fold Change, H6PD","WSU-DLCL2 cells; gene H6PD, compared to DMSO",0.906
same,"Fold Change, HNRPLL","WSU-DLCL2 cells; gene HNRPLL, compared to DMSO",0.472
same,"Fold Change, IL1RN","WSU-DLCL2 cells; gene IL1RN, compared to DMSO",0.407
same,"Fold Change, KLF9","WSU-DLCL2 cells; gene KLF9, compared to DMSO",1.348
same,"Fold Change, KLF13","WSU-DLCL2 cells; gene KLF13, compared to DMSO",1 358
same,"Fold Change, LOX","WSU-DLCL2 cells; gene LOX, compared to DMSO",0.683
same,"Fold Change, MT2A","WSU-DLCL2 cells; gene MT2A, compared to DMSO",0.929
same,"Fold Change, NFKBIA","WSU-DLCL2 cells; gene NFKBIA, compared to DMSO",0.563
same,"Fold Change, NR3C1","WSU-DLCL2 cells; gene NR3C1, compared to DMSO",0.892
same,"Fold Change, PDCD7","WSU-DLCL2 cells; gene PDCD7, compared to DMSO",1.000
same,"Fold Change, PDP1","WSU-DLCL2 cells; gene PDP1, compared to DMSO",1.078
same,"Fold Change, PER1","WSU-DLCL2 cells; gene PER1, compared to DMSO",0.880
same,"Fold Change, PER2","WSU-DLCL2 cells; gene PER2, compared to DMSO",0.951
same,"Fold Change, PIK3R1","WSU-DLCL2 cells; gene PIK3R1, compared to DMSO",1.000
same,"Fold Change, PLEKHF1","WSU-DLCL2 cells; gene PLEKHF1, compared to DMSO",0.948
same,"Fold Change, POU2F1","WSU-DLCL2 cells; gene POU2F1, compared to DMSO",0.738
same,"Fold Change, POU2F2","WSU-DLCL2 cells; gene POU2F2, compared to DMSO",1.192
same,"Fold Change, RASA3","WSU-DLCL2 cells; gene RASA3, compared to DMSO",1.143
same,"Fold Change, RGS2","WSU-DLCL2 cells; gene RGS2, compared to DMSO",0.388
same,"Fold Change, RHO8","WSU-DLCL2 cells; gene RHO8, compared to DMSO",1.533
same,"Fold Change, SESN1","WSU-DLCL2 cells; gene SESN1, compared to DMSO",5.537
same,"Fold Change, SGK1","WSU-DLCL2 cells; gene SGK1, compared to DMSO",0.244
same,"Fold Change, SLC10A6","WSU-DLCL2 cells; gene SLC10A6, compared to DMSO",0.540
same,"Fold Change, SLC19A2","WSU-DLCL2 cells; gene SLC19A2, compared to DMSO",1.362
same,"Fold Change, SLC22A5","WSU-DLCL2 cells; gene SLC22A5, compared to DMSO",6.562
same,"Fold Change, SNTA1","WSU-DLCL2 cells; gene SNTA1, compared to DMSO",0.873
same,"Fold Change, SPHK1","WSU-DLCL2 cells; gene SPHK1, compared to DMSO",0.724
same,"Fold Change, SPSB1","WSU-DLCL2 cells; gene SPSB1, compared to DMSO",0.635
same,"Fold Change, STAT5A","WSU-DLCL2 cells; gene STAT5A, compared to DMSO",0.739
same,"Fold Change, STAT5B","WSU-DLCL2 cells; gene STAT5B, compared to DMSO",0.894
same,"Fold Change, TBL1XR1","WSU-DLCL2 cells; gene TBL1XR1, compared to DMSO",0.881
same,"Fold Change, TNF","WSU-DLCL2 cells; gene TNF, compared to DMSO",0.590
same,"Fold Change, TNFAIP3","WSU-DLCL2 cells; gene TNFAIP3, compared to DMSO",0.235
same,"Fold Change, TSC22D3","WSU-DLCL2 cells; gene TSC22D3, compared to DMSO",6.625
same,"Fold Change, USP2","WSU-DLCL2 cells; gene USP2, compared to DMSO",2.745
same,"Fold Change, USPS4","WSU-DLCL2 cells; gene USPS4, compared to DMSO",0.865
same,"Fold Change, VDR","WSU-DLCL2 cells; gene VDR, compared to DMSO",1.479
same,"Fold Change, VLDLR","WSU-DLCL2 cells; gene VLDLR, compared to DMSO",0.159
same,"Fold Change, ZFP36","WSU-DLCL2 cells; gene ZFP36, compared to DMSO",0.465
same,"Fold Change, ZHX3","WSU-DLCL2 cells; gene ZHX3, compared to DMSO",0.932
same,"Fold Change, ZNF281","WSU-DLCL2 cells; gene ZNF281, compared to DMSO",1.067
